Test results: ChEMBL document CHEMBL3259656, “Discovery of AZD3199, An Inhaled Ultralong Acting β2 Receptor Agonist with Rapid Onset of Action” (ACS Med Chem Lett, 2014)
The source made the active and inactive calls. The rule behind the calls is not given here.

Protein sequences, listed by entry. Tags and fused reporters are not part of them.
UniProt Q8K4Z4, whole entry, looked up: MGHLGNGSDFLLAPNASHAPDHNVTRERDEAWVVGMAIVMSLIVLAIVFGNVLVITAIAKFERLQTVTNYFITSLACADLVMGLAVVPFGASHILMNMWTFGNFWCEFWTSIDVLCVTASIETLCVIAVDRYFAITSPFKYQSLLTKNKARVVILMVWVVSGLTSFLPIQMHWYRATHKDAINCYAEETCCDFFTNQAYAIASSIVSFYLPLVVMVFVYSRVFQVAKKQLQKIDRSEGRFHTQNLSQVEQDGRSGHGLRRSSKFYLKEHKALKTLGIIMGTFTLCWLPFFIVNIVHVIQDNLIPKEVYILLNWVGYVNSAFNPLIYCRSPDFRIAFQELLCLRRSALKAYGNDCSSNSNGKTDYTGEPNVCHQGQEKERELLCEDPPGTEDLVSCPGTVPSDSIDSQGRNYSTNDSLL

Experiments:
[1] = target: Beta-2 adrenergic receptor (Cavia porcellus) (UniProt Q8K4Z4); details: Trachea
[2] = system: Cavia porcellus; test: Bronchoprotective activity in guinea pig assessed as inhibition of histamine-induced bronchoconstriction at ED80 administered intratracheally after 4 to 24 hrs relative to control; type: functional, organism-based
Procedure, shortened: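 Guinea pigs received a single intratracheal dose of agonist. Histamine-induced bronchoconstriction was measured at several time points after dosing, up to 24 h. Bronchoprotection was expressed as inhibition relative to control animals.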

With `Br.CCN(CC)CCN(CCNCCc1ccc(O)c2[nH]c(=O)sc12)C(=O)CCOCCc1cccc2ccccc12` the pA50 [1] was 8.

In the case of `COc1ccc(CC(C)NCC(O)c2ccc(O)c(NC=O)c2)cc1` (configuration not stated), the inhibition [2] is reported as “Active”.
